Results published in patent US20050002552A1, “Automated in vitro cellular imaging assays for micronuclei and other target objects” (Pfizer Inc, priority 2003, published 2005).

Test system: Chinese hamster ovary cells
Settings: 0.05 mcg/ml, 24 hours, Cytochalasin B protocol, independent duplicate wells, listed as mitomycin C

CO[C@@]12[C@H](COC(N)=O)C3=C(C(=O)C(C)=C(N)C3=O)N1C[C@@H]1N[C@@H]12 [Mitomycin C]
Auto MN % (micronuclei frequency, automated method of this invention) (automated scoring): 2.7% | Manual MN % (micronuclei frequency, number of micronuclei divided by number of binucleated cells, manual scoring) (manual scoring): 3.8%
